Reference: patent US20260207621A1 (Vividion Therapeutics, Inc., priority 2022, published 2026)

The chains behind the UniProt entries cited, without tags or fusion partners.
UniProt Q14145, whole entry: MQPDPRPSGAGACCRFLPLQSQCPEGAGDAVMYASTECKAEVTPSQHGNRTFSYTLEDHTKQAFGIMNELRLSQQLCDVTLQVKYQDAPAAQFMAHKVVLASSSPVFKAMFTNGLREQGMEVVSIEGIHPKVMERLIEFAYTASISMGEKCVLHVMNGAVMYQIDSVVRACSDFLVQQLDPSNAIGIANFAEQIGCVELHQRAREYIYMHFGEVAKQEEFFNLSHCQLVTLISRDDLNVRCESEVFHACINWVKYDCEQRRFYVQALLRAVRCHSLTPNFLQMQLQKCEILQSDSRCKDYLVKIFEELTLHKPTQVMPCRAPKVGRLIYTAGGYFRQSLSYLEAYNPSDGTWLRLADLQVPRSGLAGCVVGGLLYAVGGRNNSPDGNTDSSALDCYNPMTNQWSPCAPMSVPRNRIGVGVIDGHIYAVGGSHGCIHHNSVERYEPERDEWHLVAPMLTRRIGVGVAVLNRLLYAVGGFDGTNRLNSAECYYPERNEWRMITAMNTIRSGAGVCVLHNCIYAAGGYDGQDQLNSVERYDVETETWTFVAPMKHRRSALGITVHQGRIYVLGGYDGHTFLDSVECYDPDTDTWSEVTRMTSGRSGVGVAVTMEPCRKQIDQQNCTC

Columns and labels:
KEAP1 C151 = KEAP1 C151 (Homo sapiens, UniProt Q14145); assay: Nrf2 TMT measurement: in vitro TE50 for KEAP1 C151 (IA-DTB competition, targeted TMT mass spectrometry) in MDA-MB-468 cell lysate; type: binding; details: read-out: KEAP1_C151 TE50, in vitro target engagement of KEAP1 C151, targeted TMT
Nrf2 = Nrf2 antagonism assay: ARE luciferase reporter in KYSE-70 cells; details: positive Imax corresponds to Nrf2 antagonism
Source text: NRF2 binds to a promoter region, antioxidant response element (ARE), to initiate expression of multiple genes. ARE luciferase reporter assays are used to test whether a ligand can activate or repress the expression of target genes using luciferase as a reporter gene.
KYSE-70 is an esophageal squamous cell carcinoma cell line with a Nrf2 mutation at amino acid position W24C. This mutation lowers the affinity between the E3 ligase that includes KEAP1 and Nrf2, resulting in a state in which the synthesis rate of new Nrf2 is faster than the E3's degradation rate of Nrf2, resulting in a “Nrf2 high” state. In KYSE-70 cells, genes are inserted directly after the ARE that trigger the expression of luciferase. Without a NRF2 antagonist in this modified KYSE70 cell line which has an inherently “NRF2 high state”, luciferase is expressed, and a signal is observed.
Nrf2 antagonists bind at C151 of KEAP1 and stabilize the E3 which results in an increased degradation rate of Nrf2. Increased degradation of Nrf2 results in less expression of luciferase, and therefore a less intense signal.
An IC50 is generated from the dose-response curve and an Imax. A positive Imax corresponds to Nrf2 antagonism. Imax >90% correlates with in vivo tumor grown inhibition. Compounds with Imax >50% were included in this description.

| SMILES | IC50 (KEAP1 C151) [nM] | KYSE70 Cellular ARE Luciferase Imax (%) (Nrf2) |
| --- | --- | --- |
| C=CC(=O)N1CCOCC1c1cc(Cl)cc(-c2coc(N)n2)c1 (single isomer, unassigned) | 51 | 78 |
| C=CC(=O)N1C[C@@](C)(O)CC[C@@H]1c1cc(Cl)cc(-c2ncc(N)cn2)c1 | 1360 | 88 |
| C=CC(=O)N1C[C@](C)(O)CC[C@@H]1c1cc(Cl)cc(-c2ncc(N)cn2)c1 | 77 | 83 |
